Literature values as cited in the PKSmart pharmacokinetics tables (Seal et al. 2025).

Experiment: Lombardo, Berellini, Obach 2018, Drug Metab Dispos 46:1466, doi 10.1124/dmd.118.082966
Conditions: human; for MRT / Vd / clearance / half-life: in vivo, iv

SMILES	MRT	Vd	clearance	half-life	fraction unbound (plasma)
N#CC(CCN1CCC(C(N)=O)(N2CCCCC2)CC1)(c1ccccc1)c1ccccc1	10 h	4.7 L/kg	7.8 mL/min/kg	8 h	0.061
CN(C(=O)Cc1cccc2sccc12)[C@@H]1CCCC[C@H]1N1CCCC1	5.9 h	1.1 L/kg	3 mL/min/kg	5.5 h	
O=[N+]([O-])OC[C@H](O)CO	4.12 h	0.76 L/kg	3.63 mL/min/kg	2.5 h	
